# Yeast mating assay B: variants of the scFv Ab-14

Binding partner: SARS-CoV-2 spike HR2 peptide, sequence PDVDLGDISGINAS.

Parent: Ab-14, a human scFv built as VH, the linker GGGGSGGGGSGGGGS, VL. Only the CDRs of the heavy chain vary.
VH: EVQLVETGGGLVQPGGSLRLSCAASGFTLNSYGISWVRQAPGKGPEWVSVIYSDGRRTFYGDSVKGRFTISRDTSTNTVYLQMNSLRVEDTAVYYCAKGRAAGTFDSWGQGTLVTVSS
VL: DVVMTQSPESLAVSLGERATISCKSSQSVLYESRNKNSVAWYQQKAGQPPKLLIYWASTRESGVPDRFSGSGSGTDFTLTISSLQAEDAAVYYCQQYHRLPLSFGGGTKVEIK

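Phage display of a naive human antibody library on the peptide gave the parent. The variants were designed computationally from a first round of random CDR variants and then made and measured. Their group label is 14H_GPLM_HC (GPLM: also part of the Gaussian process libraries; HC: hill climbing; a sequence that several methods proposed may carry one label only). Affinity was read by AlphaSeq, a pooled yeast mating assay with surface-displayed partners. Mating (16 h, 30 °C) was followed by selection of diploids and sequencing of their barcodes. Read counts were normalised to the haploid input and turned into Kd by a linear fit to BCL2-family pairs of known affinity, for each replicate. There are six technical replicates.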

The parent's heavy chain CDRs are GFTLNSYGIS, VIYSDGRRTFYGDSVK, GRAAGTFDS; each variant's own CDRs replace them letter for letter.
Numbers give log10(Kd / nM), so 0 is 1 nM and 3 is 1 µM. Smaller is tighter.
"n.d." marks a missing value. The strain was present, yet no cells mated with the target were sequenced in that replicate, which points to weak or no binding.
The authors averaged sequences with at least three values out of six and counted those with two or fewer as poor binders.
Empty control strains, which show no peptide, gave a signal in 1% of pairings with all heavy chain designs; the median was 2.08 and 95% of these signals were weaker than 0.84. No background was subtracted. Also given: how often the same scFv was detected with the empty control strains, with their mean in brackets.
Of ten entries with the parent sequence, four were seen in most replicates (averages 0.34 to 2.37), three in one and three in none, so single entries are noisy.
A sequence measured in both rounds can read differently, since the two assays cover different ranges.

CDR-H1	CDR-H2	CDR-H3	log10 Kd (nM) by replicate	empty controls
GFTLNSYGIS	VIYADGRRTFYGDSVK	GRAAGTFKV	n.d. / n.d. / n.d. / n.d. / n.d. / n.d.	0 of 18
GFVLNDYGIS	VIYSDGRRTFYGDSVK	GRMAGTFDS	0.60 / 0.65 / 0.74 / 1.08 / 1.43 / 0.88	1 of 18 (4.20)
GFSLNDYGIS	VIYSDGRRTFYGDSVK	GRAALTFDT	n.d. / n.d. / n.d. / n.d. / n.d. / n.d.	0 of 18
GFTLNSYGIS	VIYSDGKRTFYDDSVK	GQLAGTFDS	-0.12 / 1.80 / 1.23 / 1.74 / 0.42 / 1.07	0 of 18
GFTLNEYGIS	VIYSDGRRTFYTDSVK	GRCAGMFDS	n.d. / n.d. / n.d. / n.d. / n.d. / n.d.	0 of 18
GFDLNSYGIS	VIYADGRRTFYGDSVK	GRAAGTNDS	1.04 / 1.18 / 0.36 / -0.33 / 1.23 / -0.05	0 of 18
GFQLNSYGIS	VIYSDGRRTFYSDSVK	GSAAGTFDS	1.33 / 1.74 / 1.07 / 1.57 / 1.44 / 1.58	0 of 18
GFTLNEYGIS	VIYSDGRRTFYGDSVK	GRAAGTFIF	0.26 / -0.03 / 0.28 / 0.06 / 0.15 / 0.74	0 of 18
GFSLNEYGIS	VIYSDGRRTWYTDSVK	GRFAGTFDS	0.43 / 0.22 / 0.40 / 0.12 / 0.34 / 0.55	1 of 18 (1.70)
GFTLNQYGIS	VIYSDGRRTFYADSVK	GRQAGTFDS	-0.37 / -0.32 / -0.20 / -0.30 / -0.20 / -0.17	0 of 18
GFTLNEYGIS	VIYSDGRRTFYTDSVK	GRLAGTFDK	0.75 / 0.26 / -0.08 / 0.25 / 0.29 / 0.26	1 of 18 (2.54)
GFHLNDYGIS	VIYSDGRRTFYIDSVK	GRAAGTFDS	0.86 / 0.13 / 0.78 / 0.53 / 0.85 / n.d.	0 of 18
GFTLNEYGIS	VIYSDGRRTFYGDSVK	GRAAVTFWQ	n.d. / n.d. / n.d. / n.d. / n.d. / n.d.	0 of 18
GFSLNEYGIS	VIYSDGRRTFYTDAVK	GRFAGTFDS	1.47 / 0.14 / 0.46 / 0.39 / -0.07 / 0.19	0 of 18
GFSLNAYGIS	VIYSDGRRTQYIDSVK	GRAAGTFDS	n.d. / n.d. / n.d. / n.d. / n.d. / n.d.	0 of 18
GFTLMSYGIS	VIYSDGRRTFYVDSVK	GQLAGTFDS	n.d. / n.d. / n.d. / n.d. / n.d. / n.d.	0 of 18
GFTLNDYGIS	VIYSDGRRTFYGDSVK	GRAAGTFSD	1.03 / 1.38 / 1.49 / 1.22 / 1.27 / 0.60	0 of 18
GFTLNEYGIS	VIYSDGRRTFYTDSVK	GRFAGTFDI	0.97 / 0.02 / 0.35 / 0.33 / 0.83 / 0.51	0 of 18
GFTLNNYGIS	VIYSDGRRTFYGDSVK	GRAAVTFDQ	n.d. / n.d. / n.d. / n.d. / n.d. / n.d.	0 of 18
GFTLNEYGIS	VIYSDGRRTFYSDSVK	GRAAGVFDS	n.d. / 1.73 / 2.63 / 2.85 / 2.08 / n.d.	1 of 18 (2.59)
GFTLNDYGIS	VIYSDGRRTFYTDAVK	GRFAGTFDS	1.40 / 0.97 / 0.86 / 0.83 / 0.94 / 0.76	0 of 18
GFTLDSYGIS	VIYSDGRRTFYSDSVK	GSAAGTFDS	n.d. / n.d. / n.d. / n.d. / n.d. / n.d.	0 of 18
GFTLNSYGIS	VIYSDGRRTFYSDSVK	GQAGGTFDS	1.31 / 1.76 / 1.54 / 1.44 / 1.72 / 1.31	0 of 18
GFTLNSYGIS	VIYSDGRRCFYDDSVK	GQLAGTFDS	1.57 / n.d. / 1.17 / 0.55 / 1.60 / n.d.	1 of 18 (0.14)
GFDLNSYGIS	VIYSDGRRTFYGDSVK	GKAAGSFDS	0.38 / 0.57 / 0.18 / 0.18 / 0.37 / 0.41	0 of 18
GFNLNEYGIS	VIYSDGRRTFYGDSVK	GRFAGTFDS	1.25 / 0.86 / 0.34 / n.d. / 1.56 / -0.03	0 of 18
WFTLNEYGIS	VIYSDGRRTFYGDSVK	GRAAVTFDQ	n.d. / n.d. / n.d. / n.d. / n.d. / n.d.	0 of 18
GFTLNSYGIS	VIYADGRRTFYGDSVK	GRAAGTYKL	n.d. / n.d. / n.d. / 1.57 / n.d. / n.d.	0 of 18
GFDLNSYGIS	VIYSDGRRTFYADSVK	GRAAGHFNS	n.d. / 2.93 / n.d. / n.d. / n.d. / n.d.	0 of 18
GFTLNQYGIS	VIYSDGRRTFYADSVK	GKAAGTFDS	n.d. / n.d. / n.d. / 2.23 / 3.34 / n.d.	0 of 18
GFFLNSYGIS	VIYSDGRRTFYDDSVK	GQLAGTFDS	1.85 / 1.24 / 1.82 / 2.51 / 2.54 / 2.46	0 of 18
GFYLNSYGIS	VIYSDGRRTFYDDSVK	GQTAGTFDS	n.d. / n.d. / n.d. / n.d. / n.d. / n.d.	0 of 18
GFTLNSYGIS	VIYSDGHRTFYADSVK	GQLAGTFDS	1.59 / 0.76 / 0.13 / 0.72 / 0.59 / 0.91	0 of 18
GFTLNEYGIS	VIYSDGRRTFYTDSVK	GHFAGTFDS	2.07 / 1.19 / 0.67 / 0.53 / 0.45 / 0.26	1 of 18 (1.24)
GFTLNEYGIS	VIYSDGIRTFYGDSVK	GRAAGTFVS	n.d. / n.d. / n.d. / n.d. / n.d. / n.d.	0 of 18
GFTLNEYGIS	VIYSDGIRTFYGDSVK	GRHAGTFDS	0.56 / 0.92 / 0.73 / 0.62 / 0.74 / 1.12	0 of 18
GFTLNDYGIS	VIYSDGRRTWYSDSVK	GRAAGTFDS	n.d. / 1.23 / 0.88 / 2.39 / 1.63 / n.d.	0 of 18
GFSLNEYGIS	VIYSDGRRTFYTDSVK	GRNAGTFDS	-0.38 / -0.52 / -0.55 / -0.76 / -0.46 / -0.35	0 of 18
GFTLNDYGIS	VIYSDGRRTFYGDSVK	GRTAGTFNS	n.d. / 0.74 / 1.86 / 2.03 / 1.04 / n.d.	0 of 18
GFTLNEYGIS	VIYSDGQRTFYTDSVK	GRFAGTFDS	1.26 / 1.00 / 0.63 / 0.34 / 1.15 / 1.17	0 of 18
GFTLNEYGIS	VIYSDGRRTFYSDSVK	GRAAGRFDS	2.22 / n.d. / n.d. / n.d. / n.d. / n.d.	0 of 18
GFTLNSYGIS	VIYSDGMRTFYSDSVK	GRAVGTFDS	0.36 / 0.21 / 1.36 / -0.07 / 0.55 / 0.61	0 of 18
GFTLNEYGIS	VIYSDGRRTFYGDSVK	GRAAGTFFF	n.d. / n.d. / n.d. / n.d. / n.d. / n.d.	0 of 18
GFQLNSYGIS	VIYSDGRRTFYSDSVK	GRAGGTFDS	n.d. / 2.59 / 4.51 / n.d. / n.d. / n.d.	0 of 18
GFNLNEYGIS	VIYSDGRRTFYTDSVK	GRTAGTFDS	n.d. / n.d. / n.d. / n.d. / n.d. / n.d.	0 of 18

Extract of 7 entries:

CDR-H1	CDR-H2	CDR-H3	log10 Kd (nM) by replicate	empty controls
GFTLNEYGIS	VIYSDGRRTFYTDSVK	GHFAGTFDS	2.07 / 1.19 / 0.67 / 0.53 / 0.45 / 0.26	1 of 18 (1.24)
GFTLNSYGIS	VIYADGRRTFYGDSVK	GRAAGTFKV	n.d. / n.d. / n.d. / n.d. / n.d. / n.d.	0 of 18
GFQLNSYGIS	VIYSDGRRTFYSDSVK	GRAGGTFDS	n.d. / 2.59 / 4.51 / n.d. / n.d. / n.d.	0 of 18
GFTLNSYGIS	VIYSDGKRTFYDDSVK	GQLAGTFDS	-0.12 / 1.80 / 1.23 / 1.74 / 0.42 / 1.07	0 of 18
GFTLNEYGIS	VIYSDGQRTFYTDSVK	GRFAGTFDS	1.26 / 1.00 / 0.63 / 0.34 / 1.15 / 1.17	0 of 18
GFTLNQYGIS	VIYSDGRRTFYADSVK	GRQAGTFDS	-0.37 / -0.32 / -0.20 / -0.30 / -0.20 / -0.17	0 of 18
GFTLNSYGIS	VIYADGRRTFYGDSVK	GRAAGTYKL	n.d. / n.d. / n.d. / 1.57 / n.d. / n.d.	0 of 18

From the AlphaSeq antibody data of Li et al. 2023 (doi:10.1038/s41467-023-39022-2), copy in the FLAb collection.